Biological target: Wee1-like protein kinase (Homo sapiens, UniProt P30291)

Protein sequences, listed by entry. Tags and fused reporters are not part of them. Lines headed by an entry give the natural chain unless they say otherwise; changes in a name come on top.
UniProt P30291: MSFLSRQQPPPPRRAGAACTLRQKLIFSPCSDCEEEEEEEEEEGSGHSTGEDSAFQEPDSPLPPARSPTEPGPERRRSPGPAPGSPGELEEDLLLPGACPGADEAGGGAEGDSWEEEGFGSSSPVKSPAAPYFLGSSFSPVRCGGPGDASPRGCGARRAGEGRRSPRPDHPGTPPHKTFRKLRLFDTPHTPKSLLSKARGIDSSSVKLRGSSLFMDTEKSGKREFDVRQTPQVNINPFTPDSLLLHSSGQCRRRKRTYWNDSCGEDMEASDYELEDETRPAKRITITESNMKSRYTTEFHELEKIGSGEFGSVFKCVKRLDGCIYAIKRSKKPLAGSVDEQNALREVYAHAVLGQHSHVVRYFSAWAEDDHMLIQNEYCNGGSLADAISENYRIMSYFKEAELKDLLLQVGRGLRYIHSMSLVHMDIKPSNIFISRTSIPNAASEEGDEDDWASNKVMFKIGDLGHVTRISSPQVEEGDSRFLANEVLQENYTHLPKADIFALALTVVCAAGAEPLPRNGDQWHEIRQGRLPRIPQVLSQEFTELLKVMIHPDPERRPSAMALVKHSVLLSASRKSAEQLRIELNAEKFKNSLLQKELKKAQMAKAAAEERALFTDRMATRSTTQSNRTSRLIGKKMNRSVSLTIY

For O=C(O)CCn1c2ccc(O)cc2c2c3c(c(-c4ccccc4Cl)cc21)C(=O)NC3=O [3-(4-(2-chlorophenyl)-9-hydroxy-1,3-dioxo-2,3-dihydropyrrolo[3,4-c]carbazol-6(1H)-yl)propanoic acid], the IC50 was 12.9 nM.

Reference: BindingDB's records for doi:10.1016/j.ejmech.2008.09.027 (Chulalongkorn University, 2009)
